Values quoted from earlier work as cited in US20170340557A1.
This is a selection: effects in other tests are not listed, and their absence says nothing.

Conditions: oral administration

## CCC(=O)N(c1ccccc1)C1CCN(CCc2ccccc2)CC1
  Share of orally administered fentanyl not absorbed (first pass effect): ≥ 50%
